# Test results taken from patent publication US3980703A, “Extraction of carboxylic acids from dilute aqueous solutions” (The Dow Chemical Company, priority 1975, dated 1976).
# Assay: Extraction of acetic acid from 18% aqueous NaCl with polar extractants, distribution coefficient by radiometric counting (Example 1)
# Type: physicochemical
# Details: 0.5 M extractant in CHCl3; 1920 ppm acetic acid in 18% aqueous NaCl; equal volumes, 30 min
smiles,measurement,value
CCOP(=O)(NC1CCCCC1)OCC,Distribution coefficient (ratio of acetic acid concentrations in organic and aqueous phase),1.13
